Data published in patent US11091517B2, “Peptide derivative and pharmaceutical composition containing same” (TOKUSHIMA UNIVERSITY, priority 2017, dated 2021).

What was measured:
Assay type in all cases: cell-based, human
BIG3 phosphorylation = BIG3 phosphorylation (Ser305, Ser1208) in SK-BR-3 and KPL-4 cells, immunoblot; conditions: SK-BR-3 and KPL-4, 30 minutes; 10 μM H-89, 100 μg/mL trastuzumab, 10 nM lapatinib
Protocol: Immunoblots are shown which indicate that BIG3 is phosphorylated by PKA through HER2 signaling.
(§1) Cells were lysed in a lysis buffer (50 mM Tris-HCl: pH 8.0, 150 mM NaCl, 0.1% NP-40, 0.5% CHAPS) containing 0.1% protease inhibitor cocktail III (Calbiochem, San Diego, Calif., USA). The cell lysates were electrophorased, transferred to nitrocellulose membranes by blotting, and then the membranes were blocked with 4% BlockAce solution (Dainippon Pharmaceutical, Osaka, Japan) for 3 hours. […] The blots were scanned using the Image Reader LAS-3000 mini (Fujifilm, Tokyo, Japan). […]

HER2-Shc interaction = assay: HER2-Shc interaction, immunoprecipitation with anti-HER2 antibody; conditions: 24 hours
PP1Cα = PP1Cα activity of BIG3 immunoprecipitates from SK-BR-3 cells; conditions: SK-BR-3, 24 hours; 10 μM H-89, 100 μg/mL trastuzumab, 10 nM lapatinib
Protocol: (A) The expression of BIG3 in a HER2-positive breast cancer cell line is shown. The mRNA levels of BIG3 in a luminal type breast cancer cell line (MCF-7 cells), HER2-positive breast cancer cell lines (BT-474 cells, SK-BR-3 cells, and KPL-4 cells), and a normal mammary gland cell line (MCP-10A cells) were determined by real-time PCR. Data were normalized by the β2-MG content and expressed as multiples (-fold) of the value in MCF-10A cells, with that value being defined as 1.0. Data represent the mean±standard error of three independent experiments. (B) Immunoblots are shown which indicate that BIG3 binds with PKA, PP1Cα, and PHB2. SK-BR-3 cells and KPL-4 cells were lysed, the cell lysates were immunoprecipitated using an anti-BIG3 antibody and a rat IgG antibody, and immunoblot analyses were performed using the antibodies shown in the drawing. Data shown are representatives from three independent experiments. (C) The kinase activity and phosphatase activity of BIG3 are shown. […]
The phosphatase activity of PP1Cα was determined using the Protein Phosphatase Assay Kit (AnaSpec, Fremont, Calif., USA). After cell lysates were incubated with a substrate (p-Nitrophenyl phosphate) at room temperature for 60 minutes, the reaction was stopped and the absorbance at 405 nm was measured. […]

[1] = system: PHB2 (Ser39) phosphorylation; assay: PHB2 (Ser39) phosphorylation in SK-BR-3 cells, immunoblot; conditions: SK-BR-3, presence of 1 μM stERAP; 100 μg/mL trastuzumab, 10 nM lapatinib
Protocol: (A) Immunoblots are shown which indicate that BIG3 binds to PHB2 and controls its phosphorylation. SK-BR-3 cells and KPL-4 cells were treated for 24 hours with 1 μM stERAP, cell lysates thereof were subjected to immunoprecipitation using an anti-BIG3 antibody and an anti-PHB2 antibody, and immunoblot analyses were performed using the antibodies shown in the drawing. (B) Immunoblots are shown which indicate that PHB2 is phosphorylated via EGFR signaling at Ser39. […] Cells were lysed respectively and were immunoprecipitated using an anti-PHB2 antibody, and immunoblot analyses were performed using the antibodies shown in the drawing.
as §1

[2] = system: trastuzumab-resistant SK-BR-3 cells; assay: Cell growth assay, trastuzumab-resistant SK-BR-3 cells; conditions: trastuzumab alone, 24 hours
Text: (A) The results of MTT assays are shown, which evaluated the inhibitory effects of stERAP on the growth of trastuzumab-resistant HER2-positive breast cancer cell lines. […] Data represent the mean±SE of three independent experiments (*P<0.05, **P<0.01, and ***P<0.001). (B) immunoblots are shown which indicate that stERAP inhibits HER2-HER3 interaction and HER2-Shc interaction in a trastuzumab-resistant HER2-positive breast cancer cell line.
Cells were harvested, plated into 48-well plates at 2×10^4 cells/well, and maintained in an incubator (37° C.) in the presence of 5% CO2. At the point as instructed, a ten-fold diluted CCK-8 solution was added, this was incubated for 30 minutes, and the absorbance at 450 nm was measured to calculate the number of viable cells.

[3] = system: trastuzumab-resistant SK-BR-3 cells; assay: Cell cycle of trastuzumab-resistant SK-BR-3 cells, FACS; conditions: 20 μM stERAP or 100 μg/mL trastuzumab, 24 hours
Protocol: FACS analyses showing the effects of stERAP on the cell cycle are shown.
Cells were fixed using cold 70% ethanol, stained using 20 μg/mL propidium iodide (Sigma) and 1 mg/mL ribonuclease A (Sigma), and analyzed by FACS Calibur (BD, Franklin Lakes, N.J., USA). Cell cycle profiles were evaluated using CellQuest software (BD, Franklin Lakes, N.J., USA).

HER2-HER3 interaction = assay: HER2-HER3 interaction, immunoprecipitation with anti-HER2 antibody; conditions: 24 hours
[4] = SK-BR-3, BT-474, KPL-4, single agent, trastuzumab 100 μg/mL
[5] = SK-BR-3 and trastuzumab-resistant SK-BR-3, 20 μM stERAP, 100 μg/mL trastuzumab

Substance: trastuzumab: HER2 inhibitor
- suppression of BIG3 phosphorylation (Ser305 and Ser1208) (BIG3 phosphorylation): nearly completely suppressed
- inhibition of binding of HER2 to Shc (HER2-Shc interaction; [4]): could hardly inhibit
- inhibition of binding of HER2-Shc (HER2-Shc interaction; [5]): hardly affected
- inhibition rate for PP1Cα activity (PP1Cα): 88%
- decrease of PHB2 (Ser39) phosphorylation [1]: hardly observed
- suppression of growth [2]: could not suppress
- effect on cell cycle, single agent [3]: could hardly arrest the cell cycle
- inhibition of binding of HER2 to HER3 (HER2-HER3 interaction; [4]): could hardly inhibit
- inhibition of binding of HER2-HER3 (HER2-HER3 interaction; [5]): hardly affected
